# Laboratory results taken from US8846687B2, “Pyrazine compounds as PI3 kinase inhibitors” (Novartis AG, priority 2008, dated 2014).
# By UniProt entry, the sequences of proteins in these tests, tags left out. Residues count along the entry.
# UniProt P48736, 38-1102: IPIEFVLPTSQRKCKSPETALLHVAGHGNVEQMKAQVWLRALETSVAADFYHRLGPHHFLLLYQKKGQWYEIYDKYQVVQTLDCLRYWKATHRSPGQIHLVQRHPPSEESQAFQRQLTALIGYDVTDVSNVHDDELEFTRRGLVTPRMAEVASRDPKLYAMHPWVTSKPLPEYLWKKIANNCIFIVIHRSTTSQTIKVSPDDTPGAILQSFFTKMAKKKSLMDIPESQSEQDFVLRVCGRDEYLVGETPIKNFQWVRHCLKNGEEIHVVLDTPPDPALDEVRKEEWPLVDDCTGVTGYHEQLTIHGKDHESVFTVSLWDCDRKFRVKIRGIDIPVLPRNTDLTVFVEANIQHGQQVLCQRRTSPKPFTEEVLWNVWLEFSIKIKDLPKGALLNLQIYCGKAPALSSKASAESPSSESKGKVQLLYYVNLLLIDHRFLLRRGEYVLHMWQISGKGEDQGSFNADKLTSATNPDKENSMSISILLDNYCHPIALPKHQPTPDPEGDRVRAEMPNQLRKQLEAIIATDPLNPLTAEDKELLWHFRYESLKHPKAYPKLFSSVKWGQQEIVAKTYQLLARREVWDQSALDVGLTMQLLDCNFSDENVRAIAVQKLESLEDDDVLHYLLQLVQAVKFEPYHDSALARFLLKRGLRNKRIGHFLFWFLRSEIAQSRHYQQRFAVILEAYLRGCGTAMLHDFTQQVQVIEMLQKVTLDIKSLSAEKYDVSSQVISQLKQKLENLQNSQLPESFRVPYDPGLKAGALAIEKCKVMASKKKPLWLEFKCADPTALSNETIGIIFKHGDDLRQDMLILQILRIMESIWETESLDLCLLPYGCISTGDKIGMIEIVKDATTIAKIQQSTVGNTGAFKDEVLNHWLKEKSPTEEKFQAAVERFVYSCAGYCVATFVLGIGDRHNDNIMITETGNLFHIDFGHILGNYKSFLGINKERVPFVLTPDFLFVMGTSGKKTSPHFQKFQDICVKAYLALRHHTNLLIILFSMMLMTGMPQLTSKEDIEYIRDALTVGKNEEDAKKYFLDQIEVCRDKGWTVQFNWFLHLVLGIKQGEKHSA
# Target: recombinant GST-p110γ (human PI 3-Kγ) (Homo sapiens, UniProt P48736)
# Experiment: PI 3-kinase gamma in vitro kinase assay (Scintillation Proximity Assay)
compound,measurement,value
"CN1CCN(S(=O)(=O)c2cccc(-c3cnc(N)c(C(=O)c4cccnc4)c3)c2)CC1 [Example 92, {2-Amino-5-[3-(4-methyl-piperazine-1-sulfonyl)-phenyl]-pyridin-3-yl}-pyridin-2-yl-methanone]",IC50,30 nM
